The IC50 is the concentration needed to halve the response being measured.

Protein sequences, listed by entry. Tags and fused reporters are not part of them. Lines headed by an entry give the natural chain unless they say otherwise; changes in a name come on top.
UniProt Q99572: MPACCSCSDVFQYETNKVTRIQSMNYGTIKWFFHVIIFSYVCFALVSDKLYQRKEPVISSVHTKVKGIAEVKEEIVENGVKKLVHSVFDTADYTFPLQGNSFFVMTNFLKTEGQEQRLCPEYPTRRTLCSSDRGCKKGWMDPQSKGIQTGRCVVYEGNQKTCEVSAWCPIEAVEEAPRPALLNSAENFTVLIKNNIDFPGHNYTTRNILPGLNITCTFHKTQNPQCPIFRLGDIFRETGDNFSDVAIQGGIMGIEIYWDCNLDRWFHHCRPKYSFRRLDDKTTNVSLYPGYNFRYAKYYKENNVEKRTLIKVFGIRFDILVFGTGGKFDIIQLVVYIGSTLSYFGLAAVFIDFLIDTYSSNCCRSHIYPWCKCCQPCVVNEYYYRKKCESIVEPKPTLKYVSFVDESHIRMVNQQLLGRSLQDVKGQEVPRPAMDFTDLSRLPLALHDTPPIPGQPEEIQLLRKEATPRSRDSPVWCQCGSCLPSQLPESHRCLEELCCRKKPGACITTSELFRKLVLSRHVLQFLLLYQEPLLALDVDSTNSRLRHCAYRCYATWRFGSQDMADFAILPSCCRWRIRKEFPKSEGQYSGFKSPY

Each structure is given as a SMILES string.

One assay concerns the target human recombinant P2X7 receptor (Homo sapiens (Human), UniProt Q99572). In words: YO-PRO assay: P2X7 receptor antagonistic activity (ATP-induced YO-PRO-1 uptake, FLIPR).
Conditions: not given
As to `CN(Cc1ccc(Cl)cc1)C(=O)C1CCOc2ncccc21` (racemic) [Example 37, rac-3,4-Dihydro-2H-pyrano[2,3-b]pyridine-4-carboxylic acid (4-chloro-benzyl)-methyl-amide], the IC50 worked out at 758 nM.
Still for that read-out and setting: the value for `O=C(NC1CCc2c(Cl)cc(Cl)cc21)C1COc2ncccc21` (racemic) [Example 95, rac-2,3-Dihydro-furo[2,3-b]pyridine-3-carboxylic acid (4,6-dichloro-indan-1-yl)-amide] was 978 nM; that for `N#Cc1cccc(CNC(=O)C2COc3ncccc32)c1Cl` (racemic) [Example 56, rac-2,3-Dihydro-furo[2,3-b]pyridine-3-carboxylic acid 2-chloro-3-cyano-benzylamide] was 125 nM; that for `Cc1ncc(C(CNC(=O)C2COc3ncccc32)N2CCOCC2)cn1` (single isomer, unassigned) [Example 29, rac-2,3-Dihydro-furo[2,3-b]pyridine-3-carboxylic acid [2-(2-methyl-pyrimidin-5-yl)-2-morpholin-4-yl-ethyl]-amide] was 1680 nM.
On the same count and under the same terms, the value for `O=C(NC1CCc2c(Cl)cc(Cl)cc21)C1COc2ncccc21` (racemic) [Example 94, rac-2,3-Dihydro-furo[2,3-b]pyridine-3-carboxylic acid (4,6-dichloro-indan-1-yl)-amide] was 570 nM.
Same read-out and setting: the value for `O=C(NCC(c1ccc(Cl)nc1)N1CCC(F)(F)CC1)C1COc2ncccc21` (single isomer, unassigned) [Example 74, rac-2,3-Dihydro-furo[2,3-b]pyridine-3-carboxylic acid [2-(6-chloro-pyridin-3-yl)-2-(4,4-difluoro-piperidin-1-yl)-ethyl]-amide] was 120 nM.
Consider `O=C(NCc1ccc(C(F)(F)F)cc1)C1COc2ncccc21` (racemic) [Example 47, rac-2,3-Dihydro-furo[2,3-b]pyridine-3-carboxylic acid 4-trifluoromethyl-benzylamide], for which the IC50 is 1250 nM.
The same measure, in the same setting: with `Cc1ncc(C(CNC(=O)C2COc3ncccc32)N2CCOCC2)cn1` (single isomer, unassigned) [Example 30, rac-2,3-Dihydro-furo[2,3-b]pyridine-3-carboxylic acid [2-(2-methyl-pyrimidin-5-yl)-2-morpholin-4-yl-ethyl]-amide] the figure was 225 nM.
`O=C(NCc1cccc(Cl)c1C(F)(F)F)C1COc2ncccc21` (racemic) [Example 73, rac-2,3-Dihydro-furo[2,3-b]pyridine-3-carboxylic acid 3-chloro-2-trifluoromethyl-benzylamide]: the IC50 came to 20.2 nM.
In the case of `O=C(NCC(c1ccc(Cl)nc1)N1CCC(F)(F)CC1)C1COc2ncccc21` (single isomer, unassigned) [Example 75, rac-2,3-Dihydro-furo[2,3-b]pyridine-3-carboxylic acid [2-(6-chloro-pyridin-3-yl)-2-(4,4-difluoro-piperidin-1-yl)-ethyl]-amide], the IC50 turned out to be 35.3 nM.
Still for that read-out and setting: the value for `O=C(NCC1(c2ccc(Cl)nc2)CCCCC1)C1CCOc2ncccc21` (racemic) [Example 19, rac-3,4-Dihydro-2H-pyrano[2,3-b]pyridine-4-carboxylic acid [1-(6-chloro-pyridin-3-yl)-cyclohexylmethyl]-amide] was 6.3 nM; that for `O=C(NCC1(c2ccc(Cl)nc2)CCC(F)(F)CC1)C1CCOc2ncccc21` (racemic) [Example 67, rac-3,4-Dihydro-2H-pyrano[2,3-b]pyridine-4-carboxylic acid (1-(6-chloropyridin-3-yl)-4,4-difluorocyclohexylmethyl)-amide] was 7.3 nM; that for `O=C(NCc1ccc(Cl)cc1CO)C1COc2ncccc21` (racemic) [Example 117, rac-2,3-Dihydro-furo[2,3-b]pyridine-3-carboxylic acid 4-chloro-2-hydroxymethyl-benzylamide] was 1490 nM.

The same assay, now with this note: read-out: IC50 [nM], antagonistic activities with respect to the P2X7 receptor; HEK-293 cells expressing human recombinant P2X7 receptor; YO-PRO-1 fluorescence; ATP 250 μM, 90 minutes; highest concentration 10 μM.
`O=C(NC1CCc2cc(Cl)cc(Cl)c21)C1COc2ncccc21` (single isomer, unassigned) [Example 105, 2,3-Dihydro-furo[2,3-b]pyridine-3-carboxylic acid (5,7-dichloro-indan-1-yl)-amide]: the IC50 was determined as 1.3 nM.
Same read-out and setting: with `O=C(NC1CCc2cc(Cl)cc(Cl)c21)C1COc2ncccc21` (single isomer, unassigned) [Example 86, 2,3-Dihydro-furo[2,3-b]pyridine-3-carboxylic acid (5,7-dichloro-indan-1-yl)-amide] the figure was 164 nM; with `O=C(NC1CCc2cccc(Cl)c21)C1COc2ncccc21` (single isomer, unassigned) [Example 109, 2,3-Dihydro-furo[2,3-b]pyridine-3-carboxylic acid (7-chloro-indan-1-yl)-amide], 10000 nM; with `O=C(NC1CCc2cc(Cl)cc(Cl)c21)C1COc2ncccc21` (single isomer, unassigned) [Example 85, 2,3-Dihydro-furo[2,3-b]pyridine-3-carboxylic acid (5,7-dichloro-indan-1-yl)-amide], 9.5 nM.
Same read-out and setting: with `O=C(NC1CCc2cccc(Cl)c21)C1COc2ncccc21` (single isomer, unassigned) [Example 110, 2,3-Dihydro-furo[2,3-b]pyridine-3-carboxylic acid (7-chloro-indan-1-yl)-amide] the figure was 5.5 nM; with `O=C(NC1CCc2cc(Cl)cc(Cl)c21)C1COc2ncccc21` (single isomer, unassigned) [Example 104, 2,3-Dihydro-furo[2,3-b]pyridine-3-carboxylic acid (5,7-dichloro-indan-1-yl)-amide], 5100 nM.

Values taken from patent US9409917B2, “Heterocyclic amide derivatives as P2X7 receptor antagonists” (ACTELION PHARMACEUTICALS LTD., priority 2012, dated 2016).
